Biological target: Vascular endothelial growth factor receptor 3 (Homo sapiens, UniProt P35916)

Chains of the proteins cited; added tags and fusions are not shown.
UniProt P35916, whole entry: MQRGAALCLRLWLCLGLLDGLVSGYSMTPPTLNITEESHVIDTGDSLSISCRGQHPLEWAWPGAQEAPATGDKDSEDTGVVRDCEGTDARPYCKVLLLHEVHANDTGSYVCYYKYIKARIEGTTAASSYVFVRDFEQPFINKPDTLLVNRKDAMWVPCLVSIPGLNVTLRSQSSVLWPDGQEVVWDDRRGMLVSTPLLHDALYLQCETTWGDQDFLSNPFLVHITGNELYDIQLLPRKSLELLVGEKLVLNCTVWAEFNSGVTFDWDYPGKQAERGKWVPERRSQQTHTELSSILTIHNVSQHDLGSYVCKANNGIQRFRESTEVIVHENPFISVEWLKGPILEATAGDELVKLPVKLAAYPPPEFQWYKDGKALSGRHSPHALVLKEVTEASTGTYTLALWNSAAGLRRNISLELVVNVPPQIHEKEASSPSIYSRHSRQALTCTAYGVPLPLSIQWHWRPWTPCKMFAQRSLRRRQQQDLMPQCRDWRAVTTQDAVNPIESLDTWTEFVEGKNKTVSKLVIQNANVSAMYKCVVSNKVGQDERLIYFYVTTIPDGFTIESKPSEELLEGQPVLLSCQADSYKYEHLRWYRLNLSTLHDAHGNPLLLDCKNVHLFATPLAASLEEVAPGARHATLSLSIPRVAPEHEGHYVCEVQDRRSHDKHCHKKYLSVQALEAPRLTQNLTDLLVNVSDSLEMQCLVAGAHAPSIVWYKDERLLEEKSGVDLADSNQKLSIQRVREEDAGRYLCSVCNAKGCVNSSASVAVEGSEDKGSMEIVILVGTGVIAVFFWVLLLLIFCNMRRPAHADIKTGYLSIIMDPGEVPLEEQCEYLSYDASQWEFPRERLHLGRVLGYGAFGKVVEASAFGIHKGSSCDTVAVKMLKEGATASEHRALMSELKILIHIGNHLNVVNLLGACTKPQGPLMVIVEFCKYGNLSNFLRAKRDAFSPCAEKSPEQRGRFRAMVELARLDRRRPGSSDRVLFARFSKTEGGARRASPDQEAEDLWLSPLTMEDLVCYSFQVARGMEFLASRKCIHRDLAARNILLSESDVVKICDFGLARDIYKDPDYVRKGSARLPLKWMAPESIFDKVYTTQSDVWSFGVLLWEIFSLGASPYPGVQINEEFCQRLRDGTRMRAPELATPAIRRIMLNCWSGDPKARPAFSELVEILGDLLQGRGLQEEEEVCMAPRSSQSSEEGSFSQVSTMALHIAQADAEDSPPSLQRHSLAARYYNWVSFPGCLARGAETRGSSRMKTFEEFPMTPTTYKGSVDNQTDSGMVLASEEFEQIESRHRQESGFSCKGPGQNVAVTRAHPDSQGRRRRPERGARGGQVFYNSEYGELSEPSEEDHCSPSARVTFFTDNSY

[2H]C([2H])([2H])Oc1cc2nccc(Oc3ccc(NC(=O)Nc4cc(C)on4)c(Cl)c3)c2cc1OC([2H])([2H])[2H]
IC50: 4.55 nM
